Data as given in PMC2946321 (2010).

Amino acid sequences for entries named in this document (tags omitted).
UniProt P21917, whole entry: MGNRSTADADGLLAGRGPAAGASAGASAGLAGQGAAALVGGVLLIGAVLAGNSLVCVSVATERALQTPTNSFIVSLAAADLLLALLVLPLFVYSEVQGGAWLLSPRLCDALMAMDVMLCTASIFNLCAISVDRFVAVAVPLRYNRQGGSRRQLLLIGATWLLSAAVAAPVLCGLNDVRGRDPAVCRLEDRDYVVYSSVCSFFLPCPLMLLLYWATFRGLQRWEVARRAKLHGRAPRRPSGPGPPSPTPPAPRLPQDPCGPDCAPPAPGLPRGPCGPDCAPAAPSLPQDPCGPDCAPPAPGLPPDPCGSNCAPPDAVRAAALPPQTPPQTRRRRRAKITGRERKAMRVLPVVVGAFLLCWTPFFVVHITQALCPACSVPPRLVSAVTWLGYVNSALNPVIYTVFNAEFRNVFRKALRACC

Biological target: human D4 (Homo sapiens, UniProt P21917)
Assay: Competitive radioligand binding, 125I-IABN, D4 dopamine receptors
Conditions: read-out: Ki D4

Question: Which Ki does the source give for “1-(Benzo[b]thiophen-2-ylmethyl)-4-(4-bromophenyl)piperidin-4-ol oxalate [Compound 20]” here?
Answer: 377 ± 47 nM
